Test results as given in patent publication US20130040893A1, “TREATMENT OF PROLIFERATIVE DISORDERS” (TETRALOGIC PHARMACEUTICALS CORPORATION, priority 2005, published 2013).

Sequences of proteins named here, by UniProt entry; tags and fusion partners are left off. Residues count along the entry.
UniProt P98170, 241-356 limits assumed: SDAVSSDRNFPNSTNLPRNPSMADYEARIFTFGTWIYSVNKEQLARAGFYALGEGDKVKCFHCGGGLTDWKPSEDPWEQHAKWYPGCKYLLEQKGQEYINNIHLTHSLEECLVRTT
UniProt Q13490, 266-352 limits assumed: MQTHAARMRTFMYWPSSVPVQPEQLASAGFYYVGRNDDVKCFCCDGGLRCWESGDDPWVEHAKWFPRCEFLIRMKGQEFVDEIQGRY

Experiments:
BIR-3 domain of XIAP = BIR-3 domain of XIAP (Homo sapiens, UniProt P98170); assay: Fluorescence polarization binding assay, XIAP BIR-3 domain
BIR-3 domain of cIAP-1 = BIR-3 domain of cIAP-1 (Homo sapiens, UniProt Q13490); assay: Fluorescence polarization binding assay, cIAP-1 BIR-3 domain

Row | Compound | IC50 (BIR-3 domain of XIAP) | IC50 (BIR-3 domain of cIAP-1)
1 | CC(C)[C@H](NC(=O)[C@H](C)N)C(=O)N1CCC[C@H]1C(=O)N[C@@H](Cc1ccccc1)C(=O)O [AVPF, reference compound] | 0.01 to 0.1 µM | 
2 | CC[C@H](C)[C@H](NC(=O)[C@@H]1CCCN1C(=O)[C@@H](NC(=O)[C@H](C)N)C(C)C)C(=O)O [AVPI, reference compound] |  | 0.01 to 0.1 µM
